Columns and labels:
[1] = target: T1, human plasma Kallikrein (human, UniProt P03952 20-638); assay: enzyme inhibition
T1 construct: also called hPK; human PK
Description: (§1) Functional enzyme assays were conducted in 10 mM Tris HCl, 150 mM NaCl, 10 mM MgCl2, 1 mM CaCl₂) and 1 mg/mL BSA (all Sigma UK) pH7.4 at 25° C. in solid black 96 well plates. […] Release of AMC was measured using a Pherastar FS (BMG Labtech), excitation 360 nm, emission 460 nm. The rate of the linear phase of the reaction, typically 5 to 45 minutes, was calculated in MARS data analysis software (BMG labtech). The rate was then used to calculate the IC50 and Ki in Prism (GraphPad).

Chains of the proteins cited; added tags and fusions are not shown. Residues count along the entry.
UniProt P03952, 20-638 limits assumed: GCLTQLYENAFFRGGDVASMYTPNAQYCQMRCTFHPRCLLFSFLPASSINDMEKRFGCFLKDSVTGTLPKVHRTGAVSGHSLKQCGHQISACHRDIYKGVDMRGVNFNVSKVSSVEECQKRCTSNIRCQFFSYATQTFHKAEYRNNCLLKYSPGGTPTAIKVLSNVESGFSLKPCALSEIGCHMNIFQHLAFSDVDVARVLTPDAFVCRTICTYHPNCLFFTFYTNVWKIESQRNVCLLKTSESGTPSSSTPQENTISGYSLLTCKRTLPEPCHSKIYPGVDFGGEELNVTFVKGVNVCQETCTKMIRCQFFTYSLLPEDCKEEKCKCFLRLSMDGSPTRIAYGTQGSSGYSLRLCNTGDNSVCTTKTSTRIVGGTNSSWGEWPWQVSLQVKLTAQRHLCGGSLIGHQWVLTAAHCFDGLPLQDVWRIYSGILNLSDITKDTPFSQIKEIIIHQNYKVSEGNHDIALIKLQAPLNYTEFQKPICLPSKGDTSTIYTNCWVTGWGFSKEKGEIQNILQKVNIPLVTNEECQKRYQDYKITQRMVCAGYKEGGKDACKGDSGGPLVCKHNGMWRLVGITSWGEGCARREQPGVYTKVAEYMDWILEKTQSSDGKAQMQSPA
UniProt P14272, 391-638 limits assumed: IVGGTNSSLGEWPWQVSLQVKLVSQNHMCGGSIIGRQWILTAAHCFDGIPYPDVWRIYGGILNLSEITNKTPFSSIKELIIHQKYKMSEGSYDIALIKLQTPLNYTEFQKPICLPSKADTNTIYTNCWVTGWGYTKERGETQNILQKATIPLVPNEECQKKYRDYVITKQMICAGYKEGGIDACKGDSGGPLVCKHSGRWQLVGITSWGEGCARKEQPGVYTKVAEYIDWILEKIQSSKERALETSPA

[2] = target: T2, rat plasma Kallikrein (rat, UniProt P14272 391-638, limits assumed); assay: enzyme inhibition
T2 construct: domain: catalytic domain; also called rPK; rat PK
Description: as §1

Row | Binder | Ki [1] [nM] | IC50 [1] [nM] | IC50 [2] [nM]
1 | ACAWPARCLTTSLCG (3 Cys on TMB) [1E6] | 0.16 | – | –
2 | ACRWPARCVHQDLCA (3 Cys on TMB) [06-34] | 0.128 | 0.19 | 7.38
3 | ACFPSHDCDGRRMCA (3 Cys on TMB) [06-143] | 1.27 | – | –
4 | ACGGPQNCRTWTTCA (3 Cys on TMB) [06-56] | 2.1 | – | –

— patent US20180362585A1 (Bicycle, published 2018)
